Columns and labels:
[1] = target: human sodium channels Nav 1.7 (Homo sapiens, UniProt Q15858); experiment: Automated whole-cell voltage-clamp (ScreenPatch 384P) sodium current block in CHO cells expressing Nav 1.7; conditions: read-out: Nav1.7 IC50; CHO cells stably expressing human Nav 1.7; whole cell patch clamp, inactivation step -40 mV 8 s, test step 0 mV (TP1A), room temperature; mean where tested in two or more assays
Protocol: (§1) Biological assays were performed on Chinese hamster ovary (CHO) cells that express human sodium channels Nav 1.8 or Nav 1.7 in a stable manner.
(§2) The experimental protocol voltage-clamp using the whole cell configuration was established on the automated ScreenPatch© 384P platform (SP384PE, Nanion Technologies, Livingston, NJ) and the results were recorded with a Nanion 384-well Patch Clamp chip (NPC) (Nanion Technologies, Livingston, NJ).
(§3) Formula I compounds were diluted in eight concentrations in the extracellular solution composed of saline saline solution, buffered with HEPES (mM): NaCl, 137; KCl, 4; CaCl2, 3.8; MgCl2, 1; HEPES, 10; Glucose, 10; pH 7.4. […]
(§4) The protocol was repeated at a frequency of 0.05 Hz and the amplitude of the current was quantified throughout the recording of the TP1A phase. The variation in the amplitude of the peak current was evaluated according to the formula described below, after exposing the cells expressing the channels to each concentration of the different compounds: […]
(§5) wherein [Test] represents the concentration of the molecule evaluated, CI50 is the concentration of the compound that generates half of the maximum inhibition, N is the Hill coefficient, and % Block′ is the percentage of sodium channel current (Nav 1.8 and Nav 1.7) blocked at each concentration of the molecule evaluated. […]

Sequences of proteins named here, by UniProt entry; tags and fusion partners are left off.
UniProt Q15858, whole entry: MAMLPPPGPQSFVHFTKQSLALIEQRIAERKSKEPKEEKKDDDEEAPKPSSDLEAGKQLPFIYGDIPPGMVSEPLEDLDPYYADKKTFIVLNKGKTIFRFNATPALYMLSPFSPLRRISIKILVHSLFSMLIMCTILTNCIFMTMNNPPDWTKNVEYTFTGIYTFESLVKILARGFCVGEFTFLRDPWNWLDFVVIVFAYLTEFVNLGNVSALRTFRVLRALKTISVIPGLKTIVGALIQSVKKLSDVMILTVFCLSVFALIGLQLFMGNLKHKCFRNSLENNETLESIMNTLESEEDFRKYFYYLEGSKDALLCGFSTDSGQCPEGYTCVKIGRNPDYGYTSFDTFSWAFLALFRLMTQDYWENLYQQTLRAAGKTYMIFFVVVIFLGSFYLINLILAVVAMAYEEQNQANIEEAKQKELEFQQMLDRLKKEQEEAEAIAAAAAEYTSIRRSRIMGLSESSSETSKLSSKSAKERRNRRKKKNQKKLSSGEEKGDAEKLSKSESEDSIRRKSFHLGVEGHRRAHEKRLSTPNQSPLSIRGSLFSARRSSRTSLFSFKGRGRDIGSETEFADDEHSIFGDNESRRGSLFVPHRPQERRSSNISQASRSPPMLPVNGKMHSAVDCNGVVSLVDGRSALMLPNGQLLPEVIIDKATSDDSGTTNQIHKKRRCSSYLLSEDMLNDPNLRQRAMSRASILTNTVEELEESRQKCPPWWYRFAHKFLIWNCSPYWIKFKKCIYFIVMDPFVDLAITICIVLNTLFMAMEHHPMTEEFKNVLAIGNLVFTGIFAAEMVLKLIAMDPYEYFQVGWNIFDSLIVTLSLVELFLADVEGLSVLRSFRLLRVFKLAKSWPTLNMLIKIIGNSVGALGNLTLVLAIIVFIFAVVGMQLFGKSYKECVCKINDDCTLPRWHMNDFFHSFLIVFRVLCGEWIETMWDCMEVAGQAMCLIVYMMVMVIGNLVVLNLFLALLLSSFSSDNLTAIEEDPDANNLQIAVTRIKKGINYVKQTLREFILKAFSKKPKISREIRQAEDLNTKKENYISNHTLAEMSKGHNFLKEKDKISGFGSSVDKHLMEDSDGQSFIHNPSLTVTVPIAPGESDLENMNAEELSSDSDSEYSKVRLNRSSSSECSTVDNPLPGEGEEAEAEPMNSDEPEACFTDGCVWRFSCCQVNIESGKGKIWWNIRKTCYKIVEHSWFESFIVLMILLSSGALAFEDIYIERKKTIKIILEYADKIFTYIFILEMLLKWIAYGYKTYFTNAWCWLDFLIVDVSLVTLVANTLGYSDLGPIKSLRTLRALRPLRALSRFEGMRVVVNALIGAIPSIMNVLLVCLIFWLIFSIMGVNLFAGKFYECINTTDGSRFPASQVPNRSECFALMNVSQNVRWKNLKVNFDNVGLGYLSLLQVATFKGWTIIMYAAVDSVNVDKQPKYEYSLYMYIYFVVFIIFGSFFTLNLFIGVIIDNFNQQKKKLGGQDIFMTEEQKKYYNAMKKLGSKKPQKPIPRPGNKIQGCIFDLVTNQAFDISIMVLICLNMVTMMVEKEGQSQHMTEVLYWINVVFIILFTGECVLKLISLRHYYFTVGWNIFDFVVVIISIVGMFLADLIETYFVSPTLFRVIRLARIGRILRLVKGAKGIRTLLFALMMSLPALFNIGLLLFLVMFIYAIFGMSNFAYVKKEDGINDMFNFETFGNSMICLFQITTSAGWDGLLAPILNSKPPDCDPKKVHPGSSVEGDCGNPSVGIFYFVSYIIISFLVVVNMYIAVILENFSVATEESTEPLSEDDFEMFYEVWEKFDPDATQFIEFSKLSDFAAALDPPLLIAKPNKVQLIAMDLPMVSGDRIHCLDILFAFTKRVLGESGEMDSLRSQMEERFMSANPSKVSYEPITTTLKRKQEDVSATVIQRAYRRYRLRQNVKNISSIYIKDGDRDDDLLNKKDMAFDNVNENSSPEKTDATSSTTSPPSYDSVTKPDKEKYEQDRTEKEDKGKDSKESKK
UniProt Q9Y5Y9, whole entry: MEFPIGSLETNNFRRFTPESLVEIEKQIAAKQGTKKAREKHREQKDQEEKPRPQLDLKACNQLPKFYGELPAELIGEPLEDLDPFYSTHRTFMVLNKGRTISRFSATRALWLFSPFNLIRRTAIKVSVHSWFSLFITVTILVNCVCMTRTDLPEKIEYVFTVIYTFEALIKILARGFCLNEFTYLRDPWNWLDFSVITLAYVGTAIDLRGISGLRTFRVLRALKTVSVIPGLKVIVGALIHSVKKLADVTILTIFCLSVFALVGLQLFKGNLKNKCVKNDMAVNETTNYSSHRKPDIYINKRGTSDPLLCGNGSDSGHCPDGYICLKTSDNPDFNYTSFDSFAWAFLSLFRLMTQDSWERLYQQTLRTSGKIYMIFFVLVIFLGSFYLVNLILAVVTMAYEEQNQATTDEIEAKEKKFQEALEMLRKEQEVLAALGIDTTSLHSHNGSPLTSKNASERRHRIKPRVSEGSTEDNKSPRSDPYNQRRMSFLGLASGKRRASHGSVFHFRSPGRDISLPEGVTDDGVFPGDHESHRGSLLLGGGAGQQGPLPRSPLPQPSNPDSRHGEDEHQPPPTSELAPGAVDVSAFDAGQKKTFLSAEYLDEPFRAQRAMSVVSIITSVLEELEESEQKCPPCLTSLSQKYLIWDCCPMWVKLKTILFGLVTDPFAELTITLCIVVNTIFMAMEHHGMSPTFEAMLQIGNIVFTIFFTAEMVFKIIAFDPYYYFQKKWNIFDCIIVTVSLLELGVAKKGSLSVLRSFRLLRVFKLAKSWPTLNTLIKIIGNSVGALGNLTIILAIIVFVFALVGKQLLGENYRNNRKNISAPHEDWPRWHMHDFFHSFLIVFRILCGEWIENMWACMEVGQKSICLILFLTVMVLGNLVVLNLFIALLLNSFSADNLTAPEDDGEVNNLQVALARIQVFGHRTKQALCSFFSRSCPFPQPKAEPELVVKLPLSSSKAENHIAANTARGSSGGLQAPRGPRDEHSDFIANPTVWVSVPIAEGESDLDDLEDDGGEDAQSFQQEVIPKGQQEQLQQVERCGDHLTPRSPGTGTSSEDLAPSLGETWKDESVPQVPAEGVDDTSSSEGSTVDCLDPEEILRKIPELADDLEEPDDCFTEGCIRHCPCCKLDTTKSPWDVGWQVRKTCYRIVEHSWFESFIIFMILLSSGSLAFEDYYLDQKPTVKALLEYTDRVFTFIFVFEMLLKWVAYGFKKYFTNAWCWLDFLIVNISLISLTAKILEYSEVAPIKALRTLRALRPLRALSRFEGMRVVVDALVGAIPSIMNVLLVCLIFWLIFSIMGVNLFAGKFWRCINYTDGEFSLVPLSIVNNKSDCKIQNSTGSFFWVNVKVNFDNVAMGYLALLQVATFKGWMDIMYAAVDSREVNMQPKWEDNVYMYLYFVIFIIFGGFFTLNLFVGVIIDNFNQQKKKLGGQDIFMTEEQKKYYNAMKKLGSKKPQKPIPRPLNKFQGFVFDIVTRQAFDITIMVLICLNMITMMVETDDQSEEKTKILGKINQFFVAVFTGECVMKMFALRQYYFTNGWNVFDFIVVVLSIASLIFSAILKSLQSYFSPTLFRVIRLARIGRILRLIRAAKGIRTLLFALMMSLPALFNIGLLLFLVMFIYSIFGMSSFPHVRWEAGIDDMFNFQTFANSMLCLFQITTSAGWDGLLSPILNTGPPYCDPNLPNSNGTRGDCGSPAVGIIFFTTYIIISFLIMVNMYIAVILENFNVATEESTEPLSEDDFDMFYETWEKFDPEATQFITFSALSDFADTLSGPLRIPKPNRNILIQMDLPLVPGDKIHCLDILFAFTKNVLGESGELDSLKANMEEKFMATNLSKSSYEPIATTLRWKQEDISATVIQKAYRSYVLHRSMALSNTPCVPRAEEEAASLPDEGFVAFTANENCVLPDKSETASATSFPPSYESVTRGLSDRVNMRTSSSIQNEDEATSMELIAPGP

[2] = target: human sodium channels Nav 1.8 (Homo sapiens, UniProt Q9Y5Y9); experiment: Automated whole-cell voltage-clamp (ScreenPatch 384P) sodium current block in CHO cells expressing Nav 1.8; conditions: read-out: Nav1.8 IC50; CHO cells stably expressing human Nav 1.8; whole cell patch clamp, inactivation step -40 mV 8 s, test step 10 mV (TP1A), room temperature; mean where tested in two or more assays
Protocol: as §1, §2, §3, §4, §5

Row | SMILES | IC50 [1] | IC50 [2]
1 | COc1cc(CNNC(=O)c2cncc(-c3ccc(OC(C)C)nc3)n2)cc(OC)c1 | 0.5 to 1 µM | < 0.5 µM
2 | COc1cc(CNNC(=O)c2nccc(-c3ccc(Cl)cc3)n2)cc(OC)c1 | > 1 µM | > 1 µM
